The term IC50 denotes the concentration needed to halve the response being measured. Higher therefore signals lower potency.

Here are results for 1 compound from ChEMBL document CHEMBL5726850, “Substituted 1,2,3-triazoles as SMYD inhibitors for treating cancer” (2019).

This assay has as its target T1, Histone-lysine N-methyltransferase SMYD3 (Homo sapiens, UniProt Q9H7B4).
T1 sequence (Q9H7B4 whole entry): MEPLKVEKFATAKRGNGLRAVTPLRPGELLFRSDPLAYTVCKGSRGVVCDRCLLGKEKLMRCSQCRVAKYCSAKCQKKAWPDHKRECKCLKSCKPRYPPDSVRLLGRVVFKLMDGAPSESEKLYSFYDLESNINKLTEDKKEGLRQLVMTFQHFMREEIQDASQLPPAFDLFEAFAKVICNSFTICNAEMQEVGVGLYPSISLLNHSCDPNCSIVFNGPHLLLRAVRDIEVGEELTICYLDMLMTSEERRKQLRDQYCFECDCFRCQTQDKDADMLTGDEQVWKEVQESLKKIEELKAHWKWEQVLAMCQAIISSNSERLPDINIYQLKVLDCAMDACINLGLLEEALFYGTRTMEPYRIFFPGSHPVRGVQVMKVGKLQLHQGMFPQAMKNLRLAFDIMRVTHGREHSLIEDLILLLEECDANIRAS
As to the kind of experiment: SMYD3 Biochemical Assay: The assays were all performed in a buffer consisting of 25 mM Tris-Cl pH 8.0, 1 mM TCEP, 0.005% BSG, and 0.005% Tween 20, prepared on the day of use. […] DMSO (1 ul) was added to Columns 11, 12, 23, 24, rows A-H for the maximum signal control and 1 ul of SAH, a known product and inhibitor of SMYD3, was added to columns 11, 12, 23, 24, rows I-P for the minimum signal control. A cocktail (40 ul) containing the SMYD3 enzyme was added by Multidrop Combi (Thermo-Fisher). The compounds were allowed to incubate with SMYD3 for 30 min at room temperature, then a cocktail (10 ul) containing SAM and MEKK2 was added to initiate the reaction (final volume=51 ul). […] The assays were stopped by the addition of non-radiolabeled SAM (10 ul) to a final concentration of 100 uM, which dilutes the 3H-SAM to a level where its incorporation into MEKK2 is no longer detectable. Radiolabeled MEKK2 was detected using a scintillation proximity assay (SPA). 10 uL of a 10 mg/mL solution of SPA beads in 0.5 M citric acid was added and the plates centrifuged at 600 rpm for 1 min to precipitate the radiolabeled MEKK2 onto the SPA beads. The plates were then read in a PerkinElmer TopCount plate reader to measure the quantity of 3H-labeled MEKK2 as disintegrations per minute (dpm) or alternatively, referred to as counts per minute (cpm).

As to `C[C@H]1C[C@@H](NC(=O)c2ccc3c(c2)CC(=O)N3)CCN1C(=O)[C@H]1CC[C@H](N)CC1`, the IC50 stood at 6.81 µM.
